{"source": "paper PMC3529809", "about": "(Steroids, 2012)", "origin": "cited, not measured here", "test_system": "endogenous androgen receptor (AR) in MDA-MB-435 breast or LNCaP prostate cancer cells", "settings": "read-out: Ki for endogenous AR; MDA-MB-435 or LNCaP cells; cited from earlier work", "data": [{"molecule": "C[C@]12CC[C@H](O)CC1=CC[C@@H]1[C@@H]2CC[C@]2(C)C(=O)CC[C@@H]12", "note": "[DHEA, 3β-hydroxy-androst-5-ene-17-one]", "values": [{"measurement": "Ki", "value": "~1.2", "unit": "µM"}]}]}
